Data from patent US5045530A, “Pharmaceutical preparations” (priority 1986, dated 1991).

Conditions: micellarly included

In the case of HgCl2, the “reduction of toxicity by inclusion in N-tensides” value is reported as “up to 80%”.
